Reference: patent US10087260B2, “Anti-HER2 antibody and conjugate thereof” (REMEGEN, LTD., priority 2013, dated 2018)

Assays:
[1] = tested on: HER2+ cells SK-BR-3, BT474; test: Flow cytometry binding with HER2 positive breast cancer cells; assay type: cell-based, human; conditions: 6 μg antibody, SK-BR-3 and BT474
Method: (§1) After 2 times of thoroughly washing with 4 ml cold PBS, the antibodies binding with the cell surface were detected by R-PE-coupled goat anti-human IgG Fc specific second antibody (15 μl, 25 μg/mL), and then analyzed by flow cytometer (BD FACSCalibur). No binding was detected between the human IgG1 (control group) and the three kinds of cancer cells. […] By titering the concentration of anti-HER2 antibody and analyzing the cell numbers in flow cytometry, a cell-based binding curve of anti-HER2 antibody with HER2 on cell surface was obtained, and the result was shown in FIG. 4b.

MDA-MBA468 = test: Flow cytometry binding with HER2 negative cells; assay type: cell-based, human; conditions: 6 μg antibody
Method: as §1

[2] = tested on: BT474 human breast cancer transplantation tumor; test: Tumor inhibition of RC48, BT474 human breast cancer transplantation tumor model; assay type: in vivo, nude mouse; conditions: 10 mg/kg, administered three times
Description: Human breast cancer BT474 nude mouse transplantation tumor model was established by inoculating BT474 cells into nude mouse subcutaneously. After growing continuously in vivo for 3 generations, the tumor tissue which grew vigorously was taken and cut into about 1.5 mm3, and inoculated subcutaneously to right-side armpit of nude mouse (provided by Shanghai Slac Laboratory Animal Co. Ltd., with the certificate No. 2007000540582 and license No. SCXK(hu)2012-0002) under sterile conditions. The diameter of the nude mouse transplantation tumor was measured by vernier caliper. The animals were grouped randomly until the tumor grew up to 100˜300 mm3.

[3] = tested on: BT-474/L1.9 human breast cancer; test: Herceptin- and Lapatinib-resistant BT-474/L1.9 nude mouse subcutaneous transplantation tumor model; assay type: in vivo; conditions: 10 mg/kg, once per week, totally 3 times
Method: (§2) SPF-level BALB/c nude mice were inoculated subcutaneously with a certain amount of BT-474/L1.9 tumor cells, and after the tumor growing to 100-200 mm3, the animals were randomly grouped. […] The tumor volume was measured 2 times a week. The murine weight was weighted and the resistant capacity of the tumor-bearing mice towards the drugs was observed. The data were recorded. The tumor volume and the tumor-inhibition rate of each tumor-bearing mouse were calculated at different observation time points.

[4] = tested on: NCI-N87 human gastric cancer; test: NCI-N87 human gastric cancer nude mouse subcutaneous transplantation tumor model; assay type: in vivo; conditions: 10 mg/kg, dosing once per week, for 3 times
Method: [Worded in the source for another cell line; this cell line is reported under the same test.] as §2

[5] = tested on: HER2/neu over-expressed metastatic breast cancer; conditions: cited from earlier work

## Trastuzumab [Herceptin]
[1]
  binding with HER2 positive cells: strong binding
MDA-MBA468
  binding with HER2 negative cells: no binding
[2]
  tumor-inhibitory effect on BT474 tumors: inhibited
[3]
  tumor-inhibition rate: 51%
[4]
  tumor-inhibition rate: 49%
[5]; HER2-overexpressed breast cancer, Herceptin therapy
  subjects with no or only weak response: about 85%
[5]; clinical trials, combination therapy with chemical drugs
  effective rate: up to 50%
